{"source": "ChEMBL document CHEMBL1137014", "about": "“Structure-activity study of new inhibitors of human betaine-homocysteine S-methyltransferase” (J Med Chem, 2009)", "key": {"[1]": {"target": "T1, Betaine--homocysteine S-methyltransferase 1 (Homo sapiens, UniProt Q93088)", "T1 sequence (Q93088 whole entry)": "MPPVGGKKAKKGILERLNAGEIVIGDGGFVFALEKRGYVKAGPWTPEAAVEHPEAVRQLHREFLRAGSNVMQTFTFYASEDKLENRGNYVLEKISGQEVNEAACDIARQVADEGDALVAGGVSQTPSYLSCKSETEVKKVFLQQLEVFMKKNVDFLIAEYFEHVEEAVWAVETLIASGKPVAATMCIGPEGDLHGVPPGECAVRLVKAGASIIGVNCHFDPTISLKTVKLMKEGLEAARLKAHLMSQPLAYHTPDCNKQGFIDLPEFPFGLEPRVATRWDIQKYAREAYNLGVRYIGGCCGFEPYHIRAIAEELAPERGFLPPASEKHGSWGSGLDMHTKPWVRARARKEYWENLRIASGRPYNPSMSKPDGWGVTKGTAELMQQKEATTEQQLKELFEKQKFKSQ", "assay": "Binding affinity to human recombinant BHMT expressed in Escherichia coli using variable levels of betaine substrate by Dixon plot", "conditions": "read-out: Ki(app)"}, "[2]": {"target": "T1, Betaine--homocysteine S-methyltransferase 1", "assay": "Binding affinity to human recombinant BHMT expressed in Escherichia coli by intrinsic tryptophan fluorescence studies"}, "[3]": {"target": "T1, Betaine--homocysteine S-methyltransferase 1", "assay": "Inhibition of human recombinant BHMT expressed in Escherichia coli using 2 mM betaine and 1 mM DL-homocysteine as substrate", "how_it_was_run": "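Same radiometric Dowex assay as for percent inhibition (0.2 μM enzyme, pH 7.5 K-phosphate, 37 °C, 30 min), but with 1 mM DL-homocysteine and 2 mM 14C-betaine. Ten inhibitor concentrations in duplicate per curve, IC50 by nonlinear regression. Three independent experiments, mean ± SEM.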"}}}
{"smiles": "NC(CCSCCCCC(=O)O)C(=O)O", "note": "(stereo not drawn)", "values": [{"measurement": "Ki", "setting": "[1]", "result": 12, "unit": "nM"}, {"measurement": "Kd", "setting": "[2]", "result": 280, "unit": "nM"}, {"measurement": "IC50", "setting": "[3]", "result": 138, "unit": "nM"}]}
